ChEMBL document CHEMBL4152224, “The Identification of Potent, Selective, and Orally Available Inhibitors of Ataxia Telangiectasia Mutated (ATM) Kinase: The Discovery of AZD0156 (8-{6-[3-(Dimethylamino)propoxy]pyridin-3-yl}-3-methyl-1-(tetrahydro-2 H-pyran-4-yl)-1,3-dihydro-2 H-imidazo[4,5- c]quinolin-2-one)” (J Med Chem, 2018)

Columns and labels:
[1] = target: DNA-dependent protein kinase catalytic subunit (Homo sapiens, UniProt P78527)
[2] = target: Serine/threonine-protein kinase mTOR (Homo sapiens, UniProt P42345)
[3] = target: Leucine-rich repeat serine/threonine-protein kinase 2 (Homo sapiens) (UniProt Q5S007); assay: Inhibition of human LRRK2 (H970 to E2527 residues) expressed in mammalian expression system at 1 uM relative to control

## CN(C)CCCOc1ccc(-c2ccc3ncc4c(c3c2)n(C2CCOCC2)c(=O)n4C)cn1
[1]
  IC50: 140 nM
[2]
  IC50: 200 nM
[3]
  inhibition: 87%
